For 2 compounds, IC50 results are on record in patent US20160257676A1, “Aminoisoquinoline Derivatives as Protein Kinase Inhibitors” (ETERNITY BIOSCIENCE INC., priority 2012, published 2016).

Chains of the proteins cited; added tags and fusions are not shown.
UniProt P15056, whole entry V600E: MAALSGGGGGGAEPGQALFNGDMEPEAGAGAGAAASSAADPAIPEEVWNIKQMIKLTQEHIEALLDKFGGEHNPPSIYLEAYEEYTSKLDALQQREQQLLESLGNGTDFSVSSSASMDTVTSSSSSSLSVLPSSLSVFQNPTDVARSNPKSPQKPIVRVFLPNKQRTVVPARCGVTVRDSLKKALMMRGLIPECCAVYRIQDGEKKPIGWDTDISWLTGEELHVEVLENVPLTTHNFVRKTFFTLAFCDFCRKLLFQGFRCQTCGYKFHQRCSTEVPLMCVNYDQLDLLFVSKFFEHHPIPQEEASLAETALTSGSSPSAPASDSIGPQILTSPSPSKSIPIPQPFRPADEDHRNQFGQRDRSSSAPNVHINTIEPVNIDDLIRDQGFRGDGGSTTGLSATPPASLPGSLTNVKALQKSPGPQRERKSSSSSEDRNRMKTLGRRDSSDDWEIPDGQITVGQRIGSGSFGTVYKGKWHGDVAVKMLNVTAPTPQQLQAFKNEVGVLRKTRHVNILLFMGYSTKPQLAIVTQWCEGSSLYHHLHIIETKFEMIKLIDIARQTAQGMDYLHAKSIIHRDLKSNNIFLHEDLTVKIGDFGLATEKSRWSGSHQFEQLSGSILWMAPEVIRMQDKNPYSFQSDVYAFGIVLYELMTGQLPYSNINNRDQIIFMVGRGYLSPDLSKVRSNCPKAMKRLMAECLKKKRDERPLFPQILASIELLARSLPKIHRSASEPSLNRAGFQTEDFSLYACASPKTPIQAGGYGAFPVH

In this experiment the target is BRAF^V600E (Homo sapiens, UniProt P15056, V600E). Nature of the experiment: BRAF^V600E enzymatic activity assay (LanthaScreen kinase assay kit, TR-FRET). The settings on record: read-out: BRAF^V600E Lantha IC50; BRAF^V600E 20 ng/mL, ATP 2 μM, Fluorescein-MAP2K1 0.4 μM, room temperature, 60 minutes. Background: TR-FRET usually uses a lanthanide donor and a delayed reading to cut background.

What is called IC50 is the point on the concentration scale where inhibition reaches its midpoint.

Turning to `CCCS(=O)(=O)Nc1ccc(F)c(-c2cc3cnc4[nH]nc(C5CC5)c4c3cc2OC)c1F` [Example 23, N-(3-(1-cyclopropyl-8-methoxy-3H-pyrazolo[3,4-c]isoquinolin-7-yl)-2,4-difluorophenyl)propane-1-sulfonamide], the IC50 turned out to be 220 nM.
`COc1cc2c(cnc3[nH]nc(C4CC4)c32)cc1-c1c(F)ccc(NS(=O)(=O)CCCF)c1Cl` [Example 25, N-(2-chloro-3-(1-cyclopropyl-8-methoxy-3H-pyrazolo[3,4-c]isoquinolin-7-yl)-4-fluorophenyl)-3-fluoropropane-1-sulfonamide]: the IC50 is 7 nM.
